Experimental data from PMC6139040 (Clinical cancer research : an official journal of the …, 2018).

Legend:
[1] = test system: K8484 (p53^R172H/+); assay: Cell growth inhibition; type: cell-based, murine; settings: read-out: EC50 cell growth inhibition; 72 hours, MTS
[2] = test system: p53^R172H tumor tissue; assay: Cleaved caspase-3 IHC of tumor tissue, KPC p53^R172H; type: in vivo, KPC mice; settings: for CC3 staining of treated tumors in comparison to controls: KPC-172 mice, ZMC1 5 mg/kg or Zn-1 5.6 mg/kg IP daily
[3] = test system: KPC-p53^R172H pancreatic tumors; assay: KPC efficacy / survival study, p53^R172H; type: in vivo; settings: for median survival: ZMC1 5 mg/kg or Zn-1 5.6 mg/kg (molar equivalent) IP daily, vehicle 15.5 days; for mice with tumor regressions by ultrasound: ZMC1 5 mg/kg or Zn-1 5.6 mg/kg IP daily
[4] = test system: KPC-p53^R172H tumor tissues; assay: p53 target gene expression in subcutaneous tumors, KPC-p53^R172H; settings: one dose of ZMC1

Compound | EC50 [1] [nM] | CC3 staining of treated tumors in comparison to controls [2] | cleaved caspase-3 (CC3) staining versus vehicle control ([2]; four doses of 5 mg/kg) | mice with survival more than 26 days ([3]; 5 mg/kg IP daily) | tolerability during efficacy study ([3]; 5 mg/kg IP daily, KPC mice) | median survival [3] [days] | mice with tumor regressions by ultrasound [3] | gene expression of Puma, Noxa and p21 in tumor tissue [4] | mice with remarkably good responses ([3]; Zn-1 5.6 mg/kg IP daily) | survival times of the mice with remarkably good responses ([3]; Zn-1 5.6 mg/kg IP daily, 5.6 mg/kg)
C/C(=N\NC(=S)N1CCC1)c1ccccn1 [ZMC1] | 600 | significantly increased | significantly greater level of staining | 4 out of 8 | well tolerated | 26 | 5/8 | increased | – | –
[Zn(ZMC1)2] [Zn-1] | – | significantly increased | – | – | – | 35 | 7/10 | – | 2/5 | 70 days and 81 days

Where “and” joins values, the source holds several entries; their conditions need not be identical. Identical values can stand only once.
